Like-named read-outs stand apart in the source and are kept apart here.
How the values were obtained:
[1] = system: RAW 264.7 cells; format: cell-based, mouse; settings: RAW 264.7, H3N2 virus, 4 hours; 0.5 μM CPT, 100 nM TPT
[2] = system: RAW 264.7 cells

Row | SMILES | PAMP-induced gene expression [1] | DNA damage (H2AX staining) at the concentration used ([2]; RAW 264.7, 0.5 μM CPT, 100 nM TPT, 6 hours p.i.) | concentration at which DNA damage was detectable, relative to the concentration selected ([2]; RAW 264.7, selected 0.5 μM CPT, 100 nM TPT) [times higher] | concentration at which DNA damage was detectable, relative to the concentration selected ([2]; mouse) [times higher]
1 | CC[C@@]1(O)C(=O)OCc2c1cc1n(c2=O)Cc2cc3ccccc3nc2-1 [CPT, Camptothecin] | inhibitory effect | neither TPT- nor CPT-treated cells displayed DNA damage | 20 | –
2 | CC[C@@]1(O)C(=O)OCc2c1cc1n(c2=O)Cc2cc3c(CN(C)C)c(O)ccc3nc2-1 [TPT, Topotecan] | inhibitory effect | – | – | 100
